Assay results: ChEMBL document CHEMBL3817788, “Natural cholinesterase inhibitors from Myristica cinnamomea King” (Bioorg Med Chem Lett, 2016)
pIC50: −log10 of the molar value.

Chains of the proteins cited; added tags and fusions are not shown.
UniProt P81908, whole entry: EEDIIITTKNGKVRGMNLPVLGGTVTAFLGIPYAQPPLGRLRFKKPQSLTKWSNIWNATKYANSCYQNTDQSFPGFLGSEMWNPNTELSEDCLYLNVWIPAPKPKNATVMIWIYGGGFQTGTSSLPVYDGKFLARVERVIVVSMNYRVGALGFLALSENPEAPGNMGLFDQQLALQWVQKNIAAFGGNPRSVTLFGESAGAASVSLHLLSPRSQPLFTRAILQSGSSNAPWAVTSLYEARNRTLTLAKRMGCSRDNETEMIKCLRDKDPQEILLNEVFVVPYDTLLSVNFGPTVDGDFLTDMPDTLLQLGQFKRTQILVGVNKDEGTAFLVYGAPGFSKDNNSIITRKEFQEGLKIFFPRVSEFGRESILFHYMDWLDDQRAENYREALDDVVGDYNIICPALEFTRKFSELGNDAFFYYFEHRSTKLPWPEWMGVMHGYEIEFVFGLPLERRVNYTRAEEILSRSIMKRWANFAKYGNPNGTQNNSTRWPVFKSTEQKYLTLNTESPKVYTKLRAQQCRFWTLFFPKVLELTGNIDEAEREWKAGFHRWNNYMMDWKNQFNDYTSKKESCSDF

Target: Cholinesterase (Equus caballus, UniProt P81908)
Assay: Inhibition of equine serum BChE using S-butyrylthiocholine chloride as substrate incubated for 30 mins by Ellman's microplate assay

CNC(=O)Oc1ccc2c(c1)[C@]1(C)CCN(C)[C@@H]1N2C [PHYSOSTIGMINE]
pIC50: 6.66
